Our source for the IC50 values is patent publication US9145391B2, “Bipyridylaminopyridines as Syk inhibitors” (Merck Sharp & Dohme Corp., priority 2011, dated 2015).

Broadly, the IC50 is the concentration at which inhibition is half-maximal.

For the test, the target named is recombinant human GST-Syk (Homo sapiens (Human), UniProt P43405). As to the kind of experiment: Homogeneous Time-Resolved Fluorescence (HTRF) assay for the recombinant human Syk enzyme. It is filed as biochemical. Conditions: read-out: rhSyk IC50, recombinant human GST-Syk 5 pM, ATP 25 μM. For orientation: In TR-FRET formats the signal depends on donor and acceptor labels being close together.
`Cc1cc(Nc2cc(C(F)(F)F)ccn2)nc(-c2ccc(N3CCN(C(=O)c4ccc5cc[nH]c5c4)CC3)nc2)c1`: the IC50 worked out at 61 nM.

`Cc1ccnc(Nc2cc(C)cc(-c3ccc(N4CCC4C(=O)O)nc3)n2)c1` (racemic) [2-14]: the IC50 was found to be 234 nM.

Turning to `Cc1ccnc(Nc2cc(C)cc(-c3ccc(N4CCC4C(=O)O)nc3)n2)c1` (racemic) [2-7], the IC50 was determined as 43 nM.

Take `Cc1ccnc(Nc2cc(C)cc(-c3ccc(NC4CCNC4=O)nc3)n2)c1` (racemic): the IC50 was found to be 27 nM.

`Cc1ccnc(Nc2cc(C)cc(-c3ccc(N4CCCC4C(=O)O)nc3)n2)c1` (racemic) [2-6]: the IC50 worked out at 45 nM.

On to `Cc1cc(Nc2cc(C(F)(F)F)ccn2)nc(-c2ccc([C@@]3(O)CC[C@@H](C(N)=O)C(C)(C)C3)nc2)c1` (relative stereo), for which the IC50 turned out to be 25 nM.

In the case of `Cc1ccnc(Nc2cc(C)cc(-c3ccc(NC(C)(C)C(=O)O)nc3)n2)c1` [2-15], the IC50 amounted to 298 nM.

In the case of `Cc1ccnc(Nc2cc(C)cc(-c3ccc(N4CCCC4C(=O)O)nc3)n2)c1` (racemic) [2-13], the IC50 was 226 nM.
